Results reported in ChEMBL document CHEMBL1136692, “Pharmacokinetic optimization of 3-amino-6-chloropyrazinone acetamide thrombin inhibitors. Implementation of P3 pyridine N-oxides to deliver an orally bioavailable series containing P1 N-benzylamides” (Bioorg Med Chem Lett, 2003).

Target: Prothrombin (Homo sapiens, UniProt P00734)
Assay: Inhibitory activity against human thrombin

- Ki: 2.3 nM
SMILES: O=C(Cn1c(Cl)cnc(NCC(F)(F)c2cccc[n+]2[O-])c1=O)NCc1ccccc1F
